Laboratory results reported in patent publication US20220282217A1, “COMPOSITIONS AND METHODS FOR PREPARING T CELL COMPOSITIONS AND USES THEREOF” (priority 2019, published 2022).

Columns and labels:
[1] = biological target: HLA-A03.01 (human); test: pMHC-I dissociation half-life, 125I-b2m; conditions: remark: other sources report otherwise
[2] = biological target: HLA-A11.01 (human); test: pMHC-I dissociation half-life, 125I-b2m; conditions: remark: other sources report otherwise

B1: … (peptide)
peptide: VVVGACGVGK
Measured stability [1]: 2.5 h
Measured stability [2]: 15.7 h
